Results: patent US6147097A, “Imidazole derivatives as anti-HIV agents” (Shionogi & Co., Ltd., priority 1994, dated 2000)

Biological target: T1, purified recombinant HIV-1 reverse transcriptase (Human immunodeficiency virus type 1 group M subtype B, UniProt P04585)
T1 construct: purified recombinant HIV-1 reverse transcriptase; made in house; host or cells: Escherichia coli
Experiment: reverse transcriptase inhibition, poly(rA)/(dT) template primer, [3H]dTTP uptake
Type: biochemical

In the case of `CC(C)c1nc(COC(N)=O)n(Cc2ccccn2)c1Sc1cc(Cl)cc(Cl)c1` [Compound I-93], the IC50 is reported as 1090 nM.
